One experiment concerns the target Hsp90β (Homo sapiens, UniProt P08238). Briefly: Fluorescence polarization assay (FITC-GDA tracer displacement), Hsp90β. The format is binding. Conditions: for Kd: Kd Hsp90β, fluorescence polarization, apparent Kd. On the technique in general: In fluorescence polarisation assays a small probe gives low polarisation when free and higher when bound to something large.

By UniProt entry, the sequences of proteins in these tests, tags left out.
UniProt P08238, whole entry: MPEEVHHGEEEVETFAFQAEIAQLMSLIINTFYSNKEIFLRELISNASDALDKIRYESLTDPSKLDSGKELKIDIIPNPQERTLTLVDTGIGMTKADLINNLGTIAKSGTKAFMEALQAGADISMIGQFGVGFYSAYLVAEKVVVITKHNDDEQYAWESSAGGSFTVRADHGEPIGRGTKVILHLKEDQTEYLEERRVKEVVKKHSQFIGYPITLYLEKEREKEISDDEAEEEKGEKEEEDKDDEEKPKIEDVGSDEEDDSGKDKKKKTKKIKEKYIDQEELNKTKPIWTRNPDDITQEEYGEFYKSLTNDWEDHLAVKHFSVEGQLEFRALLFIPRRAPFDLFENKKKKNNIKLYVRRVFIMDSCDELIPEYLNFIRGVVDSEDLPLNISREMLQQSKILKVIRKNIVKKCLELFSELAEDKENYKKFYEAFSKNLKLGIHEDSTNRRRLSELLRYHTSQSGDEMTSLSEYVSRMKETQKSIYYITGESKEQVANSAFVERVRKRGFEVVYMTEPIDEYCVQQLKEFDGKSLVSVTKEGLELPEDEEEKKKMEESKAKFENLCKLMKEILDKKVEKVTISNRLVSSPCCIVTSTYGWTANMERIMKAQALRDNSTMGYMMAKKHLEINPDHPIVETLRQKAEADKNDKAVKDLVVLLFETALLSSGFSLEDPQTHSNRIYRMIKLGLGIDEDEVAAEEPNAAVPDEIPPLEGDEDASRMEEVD

The target in the next experiment is Hsp90α (Homo sapiens, UniProt P07900). As to the kind of experiment: Fluorescence polarization assay (FITC-GDA tracer displacement), Hsp90α. As to conditions: apparent Kd.

Where only a bound is given, the exact number is not on record here.

In the case of `CC(C)c1cc(C(=O)N2Cc3ccccc3C2)c(O)cc1C=O` [Compound 4], on Hsp90β (Hsp90β versus Hsp90α, from Kd values), the “selectivity for Hsp90β” value was ~ 4 fold. Moreover, the Kd on Hsp90β was found to be 350 ± 130 nM; at Hsp90β (value in nM) it was 310 nM.
As for `CC(C)c1cc(C(=O)N2Cc3ccccc3C2)c(O)c(CO)c1O` [Compound 5], the “selectivity over the other isoforms” value at Hsp90β (Hsp90β versus other Hsp90 isoforms) is on record as above 25 fold. Also, the Kd at Hsp90α was above 100000 nM.

Values taken from publication PMC5789826, “Structure-guided design of an Hsp90β N-terminal isoform-selective inhibitor” (Nature Communications, 2018).
